Tests used:
Format in all cases: biochemical
[1] = target: T1, RLuc8 (Renilla reniformis, UniProt P27652, A143M/A55T/C124A/K136R/M185V/M253L/S130A/S287L); settings: bioluminescence spectrum, ATTO LumiFL
T1 construct: expressed in transfected cells; host or cells: COST cells (so in the source)
Description: (§1) As in the method for measuring bioluminescence intensity described above, luminescence spectrum was measured according to the protocol of Renilla Luciferase Assay System (Cat. No. E 2810; Promega). The luminescence spectrum was measured using ATTO LumiFL. The maximum luminescence intensities were normalized to be relative values to 1.0 upon determination of the maximum luminescence wavelength.

Protein sequences, listed by entry. Tags and fused reporters are not part of them.
UniProt P27652, whole entry A55T/C124A/S130A/K136R/A143M/M185V/M253L/S287L: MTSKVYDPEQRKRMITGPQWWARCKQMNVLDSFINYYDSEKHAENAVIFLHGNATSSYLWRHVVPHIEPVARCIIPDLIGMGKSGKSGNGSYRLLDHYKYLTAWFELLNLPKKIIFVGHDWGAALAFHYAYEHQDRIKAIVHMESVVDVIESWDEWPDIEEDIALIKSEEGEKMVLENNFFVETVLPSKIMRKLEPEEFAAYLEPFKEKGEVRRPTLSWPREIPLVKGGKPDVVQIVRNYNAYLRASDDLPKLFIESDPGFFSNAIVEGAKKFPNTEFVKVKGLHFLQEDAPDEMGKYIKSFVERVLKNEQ
UniProt P27652, whole entry A55T/A123S/C124A/S130A/K136R/A143M/D154M/E155G/D162E/I163L/M185L/M253L/S287L: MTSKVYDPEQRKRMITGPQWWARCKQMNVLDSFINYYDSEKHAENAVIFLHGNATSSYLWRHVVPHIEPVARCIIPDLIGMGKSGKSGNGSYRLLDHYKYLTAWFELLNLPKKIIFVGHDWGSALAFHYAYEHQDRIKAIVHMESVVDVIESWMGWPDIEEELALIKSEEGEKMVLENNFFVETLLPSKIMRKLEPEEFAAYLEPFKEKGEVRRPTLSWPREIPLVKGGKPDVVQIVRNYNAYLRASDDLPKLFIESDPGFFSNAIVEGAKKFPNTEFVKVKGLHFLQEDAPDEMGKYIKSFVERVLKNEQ

[2] = target: T1, RLuc8; settings: 2 μM substrate in PBS pH 7.4, cell lysate, maximum intensity over 1 second, relative value
Source text: (§2) The luciferases were respectively expressed in COST cells using an expression vector (pcDNA3.1(+), commercially available from Invitrogen) comprising the sequence encoding native Renilla Luciferase (RLuc) (trade name pGL4.75, commercially available from Promega) or an expression vector (trade name pcDNA3.1(+), commercially available from Invitrogen) comprising the sequence encoding a RLuc derivative RLuc8 or RLuc8.6-535 (Reference: Loening, A. M. et al., Nat. Methods, 2007, 4, 641-643.). The cells were lysed using a Renilla Luciferase Lysis Buffer (E291A, Promega), and the lysate was directly used as an enzyme solution. […] Bioluminescence was measured according to the protocol of Renilla Luciferase Assay System (Cat. No. E 2810; Promega). The luminescent substrate was dissolved in methanol to prepare a 2 mM solution. The solution was diluted to 2 μM with PBS buffer (pH 7.4), and the diluted solution was used as a substrate solution. To 200 μL of the substrate solution, 4 μL of the cell lysate containing RLuc, RLuc 8 or RLuc8.6-535 was added to start the luminescent reaction. The luminescence intensity was measured with a Berthold Lumat LB 9507 for 1 second, and indicated by the maximum luminescence intensity (I). The luminescence intensity of the native CTZ by RLuc8 was set to be 1.0, and the other bioluminescence intensities were normalized to be relative values to that of native CTZ.

[3] = target: T2, RLuc8.6-535 (Renilla reniformis, UniProt P27652, A123S/A143M/A55T/C124A/D154M/D162E/E155G/I163L/K136R/M185L/M253L/S130A/S287L); design: expressed in transfected cells; host or cells: COST cells (so in the source); settings: 2 μM substrate in PBS pH 7.4, cell lysate, maximum intensity over 1 second, relative value
Source text: as §2

[4] = target: T2, RLuc8.6-535; design: expressed in transfected cells; host or cells: COST cells (so in the source); settings: bioluminescence spectrum, ATTO LumiFL
Description: as §1

Cc1ccc(-c2cn3c(=O)c(Cc4ccc(O)cc4)nc-3c(Cc3ccccc3)[nH]2)cc1 [Example 6-Methyl-CTZ]
RLuc8 half-width (nm) [1]: [44] nm | RLuc8 maximum luminescence wavelength (nm) [1]: 415 nm | RLuc8 luminescence intensity (%) [2]: 2.72% | RLuc8.6-535 luminescence intensity (%) [3]: 41.0% | RLuc8.6-535 half-width (nm) [4]: [51] nm | RLuc8.6-535 maximum luminescence wavelength (nm) [4]: 413 nm

COCCCOc1ccc(-c2cn3c(=O)c(Cc4ccc(O)cc4)nc-3c(Cc3ccccc3)[nH]2)cc1 [6-Alkyl3OMe-CTZ]
RLuc8 half-width (nm) [1]: [44] nm | RLuc8 maximum luminescence wavelength (nm) [1]: (418) nm | RLuc8 luminescence intensity (%) [2]: 9.19% | RLuc8.6-535 luminescence intensity (%) [3]: 41.1% | RLuc8.6-535 half-width (nm) [4]: [59] nm | RLuc8.6-535 maximum luminescence wavelength (nm) [4]: 412 nm

O=c1c(Cc2ccc(O)cc2)nc2c(Cc3ccccc3)[nH]c(-c3ccc(OCCCCCO)cc3)cn1-2 [6-Alkyl5OH-CTZ]
RLuc8 half-width (nm) [1]: [70] nm | RLuc8 maximum luminescence wavelength (nm) [1]: 403 nm | RLuc8 luminescence intensity (%) [2]: 3.75% | RLuc8.6-535 luminescence intensity (%) [3]: 22.5% | RLuc8.6-535 half-width (nm) [4]: [66] nm | RLuc8.6-535 maximum luminescence wavelength (nm) [4]: 406 nm

Source: patent US10239884B2, “Coelenterazine compounds and uses thereof” (KEIO UNIVERSITY, priority 2017, dated 2019)
